Amino acid sequences for entries named in this document (tags omitted).
UniProt P27338, whole entry: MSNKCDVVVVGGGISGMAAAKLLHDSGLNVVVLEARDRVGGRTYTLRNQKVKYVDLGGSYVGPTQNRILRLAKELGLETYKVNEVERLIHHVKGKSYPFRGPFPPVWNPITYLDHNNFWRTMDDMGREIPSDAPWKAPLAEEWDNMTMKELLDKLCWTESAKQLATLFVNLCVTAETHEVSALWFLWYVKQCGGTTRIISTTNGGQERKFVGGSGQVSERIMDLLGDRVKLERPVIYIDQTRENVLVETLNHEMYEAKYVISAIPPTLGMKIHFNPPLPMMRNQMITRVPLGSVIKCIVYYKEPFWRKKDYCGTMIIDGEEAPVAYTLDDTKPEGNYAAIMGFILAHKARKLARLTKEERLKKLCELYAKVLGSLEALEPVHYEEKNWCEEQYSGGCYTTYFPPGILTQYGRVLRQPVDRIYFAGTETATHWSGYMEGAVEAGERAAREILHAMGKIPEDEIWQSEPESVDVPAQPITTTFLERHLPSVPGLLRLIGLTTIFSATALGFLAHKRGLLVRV

According to ChEMBL document CHEMBL4190307, “Design, synthesis and biological evaluation of novel coumarin-N-benzyl pyridinium hybrids as multi-target agents for the treatment of Alzheimer's disease” (Eur J Med Chem, 2017):

Target: Amine oxidase [flavin-containing] B (Homo sapiens, UniProt P27338)
Experiment: Irreversible inhibition of recombinant human MAO-B assessed as enzyme activity recovery at 10 times IC50 using p-tyramine as substrate preincubated for 30 mins followed by 100 fold compound dilution by Amplex Red dye-based fluorometric method relative to control
Design: scale not given: the % may be the effect or the level left

For `C#CCN(C)Cc1ccccc1` [PARGYLINE], the Activity was under 10%.
